Measured values as given in patent publication US20230218577A1, “USE OF HEAT SHOCK PROTEIN INHIBITORS FOR THE TREATMENT OF NEURODEVELOPMENTAL DISORDERS” (The Children's Medical Center Corporation, priority 2020, published 2023).
Like-named read-outs stand apart in the source and are kept apart here. Peptide text beside a SMILES is read from it. * marks the point of attachment. Cbz = O=C(OCc1ccccc1)*

Tested on: mTORC1 activity (pS6) in Tsc2-sh hippocampal neurons
Assay: mTORC1 high-content screen (mTORC1^HCA) with the Biomol collection library
[1] = Z-score of percent GFP+pS6+ neurons in compound-treated Tsc2-knockdown wells, DIV20, Biomol library screen, replica 1
[2] = Z-score of percent GFP+pS6+ neurons in compound-treated Tsc2-knockdown wells, DIV20, Biomol library screen, replica 2

Nc1ccncc1 [4-Aminopyridine]
T2 Zscore (Replica 1): 0.1462 | T2 Zscore (Replica 2): 0.3098

CCCCCCCC/C=C\CCCCCCCC(N)=O [9,10-Octadecenoamide]
T2 Zscore (Replica 1): −0.1881 | T2 Zscore (Replica 2): 0.6079

CC(C)C[C@@H](C=O)NC(=O)[C@H](CC(C)C)NC(=O)[C@H](CC(C)C)NC(=O)OCc1ccccc1 [MG-132] (Cbz-Leu-Leu-Leu-aldehyde)
T2 Zscore (Replica 1): −1.117 | T2 Zscore (Replica 2): −2.179

COc1cccc2c1cc([N+](=O)[O-])c1c(C(=O)O)cc3c(c12)OCO3 [Aristolochic acid]
T2 Zscore (Replica 1): −2.22 | T2 Zscore (Replica 2): −1.172

O=C(O)CCC/C=C\C[C@@H]1[C@H](CNNC(=O)Nc2ccccc2)[C@H]2CC[C@@H]1O2 [SQ-29548]
T2 Zscore (Replica 1): 0.3567 | T2 Zscore (Replica 2): 0.964

CC[C@@]1(O)C(=O)OCc2c1cc1n(c2=O)Cc2cc3cc(O)ccc3nc2-1 [10-hydroxycamptothecin]
T2 Zscore (Replica 1): −0.7172 | T2 Zscore (Replica 2): −1.673

C/C(O)=C(\C#N)C(=O)Nc1cc(Br)ccc1Br [LFM-A13]
T2 Zscore (Replica 1): −0.8437 | T2 Zscore (Replica 2): 0.1668

CNc1ccc2oc(C[C@H]3O[C@@]4(CC[C@H]3C)O[C@H]([C@H](C)C(=O)c3ccc[nH]3)[C@H](C)C[C@H]4C)nc2c1C(=O)O [A-23187]
T2 Zscore (Replica 1): 1.014 | T2 Zscore (Replica 2): 0.5039

CCCCC[C@H](O)/C=C/[C@H]1[C@H](O)CC(=O)[C@@H]1CCCCCCC(=O)O [Prostaglandin E1]
T2 Zscore (Replica 1) [1]: 1.252 | T2 Zscore (Replica 2) [2]: −0.5248

Clc1cccc(Cl)c1N=C1NCCN1 [Clonidine]
T2 Zscore (Replica 1) [1]: 1.179 | T2 Zscore (Replica 2) [2]: −0.6314

CCCCCCCCCCCCCC(=O)N[C@H](C)[C@@H](O)c1ccccc1 [D-erythro-MAPP]
T2 Zscore (Replica 1): −3.005 | T2 Zscore (Replica 2): 0.5186

KN-62
T2 Zscore (Replica 1): 0.2831 | T2 Zscore (Replica 2): 0.9362

CCCCC[C@H](O)CC(=O)CCc1ccc(O)c(OC)c1 [6-Gingerol]
T2 Zscore (Replica 1) (Z-score of percent GFP+pS6+ neurons in compound-treated Tsc2-knockdown wells, DIV20, Biomol library, replica 1): 1.125 | T2 Zscore (Replica 2) (Z-score of percent GFP+pS6+ neurons in compound-treated Tsc2-knockdown wells, DIV20, Biomol library, replica 2): 1.46

Oc1c2ccccc2c2c3c(cccc13)N=N2 [SP-600125]
T2 Zscore (Replica 1) [1]: 0.4069 | T2 Zscore (Replica 2) [2]: 0.05215

COC(=O)[C@@]1(O)C[C@H]2O[C@]1(C)n1c3ccccc3c3c4c(c5c6ccccc6n2c5c31)C(=O)NC4 [K252A, reference compound]
T2 Zscore (Replica 1): −2.515 | T2 Zscore (Replica 2): −2.779 | hit in mTORC1 screen (Z-score <−1.8 in both replicas): positive hits

CCCCCCCCCCCCC/C=C/[C@@H](O)[C@H](CO)NCCCCCCCC [C8 Ceramine]
T2 Zscore (Replica 1): 0.4948 | T2 Zscore (Replica 2): 0.05838

COc1ccc([C@@H]2Sc3ccccc3N(CCN(C)C)C(=O)[C@@H]2OC(C)=O)cc1.Cl [Diltiazem • HCl]
T2 Zscore (Replica 1) [1]: −0.3876 | T2 Zscore (Replica 2) [2]: 1.629

NC(=Nc1ccccc1)NC(=O)c1nc(Cl)c(N)nc1N [Phenamil]
T2 Zscore (Replica 1) [1]: 0.6466 | T2 Zscore (Replica 2) [2]: −0.381

N#Cc1nn(-c2c(Cl)cc(C(F)(F)F)cc2Cl)c(N)c1[S+]([O-])C(F)(F)F (centres unmarked) [Fipronil]
T2 Zscore (Replica 1): 1.475 | T2 Zscore (Replica 2): 0.08261

CCCCC/C=C\CC1OC1C/C=C\C/C=C\CCCC(=O)O (racemic) [(±)11(12)-Epoxy eicosatrienoic acid]
T2 Zscore (Replica 1): 0.8776 | T2 Zscore (Replica 2): 0.8285

C/C(=C\c1ccc(C(=O)O)cc1)c1ccc2c(c1)C(C)(C)CCC2(C)C [TTNPB]
T2 Zscore (Replica 1): 0.4788 | T2 Zscore (Replica 2): −0.0476

CCCCC[C@@H](/C=C/C=C\CCCCCCCC(=O)O)OO [13(S)-HPODE]
T2 Zscore (Replica 1): 0.2882 | T2 Zscore (Replica 2): −1.527

Cn1c2ccccc2c2c3c(c4c5ccccc5n(CCC#N)c4c21)CNC3=O [Go6976]
T2 Zscore (Replica 1) [1]: 0.2801 | T2 Zscore (Replica 2) [2]: 1.338

CCCC[C@@H](C)[C@@H](OC(=O)C[C@@H](CC(=O)O)C(=O)O)[C@H](C[C@@H](C)C[C@H](O)CCCC[C@@H](O)C[C@H](O)[C@H](C)N)OC(=O)C[C@@H](CC(=O)O)C(=O)O [Fumonisin B1]
T2 Zscore (Replica 1): −0.2394 | T2 Zscore (Replica 2): 0.6495

CCCCCCCCCC(=O)OCC(CO)OC(=O)CCCCCCCCC (centres unmarked) [1,2-Didecanoyl-glycerol (10:0)]
T2 Zscore (Replica 1): 1.059 | T2 Zscore (Replica 2): −0.4534

COc1ccc(C(=O)O[C@H]2CC[C@@]3(C)[C@@H]4CC[C@H]5[C@]6(O)C[C@H](O)[C@@]7(O)[C@@H](CN8C[C@@H](C)CC[C@H]8[C@@]7(C)O)[C@]6(O)C[C@@]53O[C@]24O)cc1OC [Veratridine]
T2 Zscore (Replica 1): 0.7363 | T2 Zscore (Replica 2): −0.231

Cc1ccc(N(CC2=NCCN2)c2cccc(O)c2)cc1 [Phentolamine]
T2 Zscore (Replica 1) [1]: 1.591 | T2 Zscore (Replica 2) [2]: −0.1789

CC(=O)OCOC(c1ccc2ccccc2c1)P(=O)(OCOC(C)=O)OCOC(C)=O (centres unmarked) [HNMPA-(AM)3]
T2 Zscore (Replica 1): 1.37 | T2 Zscore (Replica 2): −0.2103

CC[C@@]1(O)C(=O)OCc2c1cc1n(c2=O)Cc2cc3ccccc3nc2-1 [Camptothecin]
T2 Zscore (Replica 1): −1.73 | T2 Zscore (Replica 2): −2.009

CCN(CC)CCCCCCCCOC(=O)c1cc(OC)c(OC)c(OC)c1 [TMB-8]
T2 Zscore (Replica 1): −2.5 | T2 Zscore (Replica 2): 0.0563

C=C1CCC(O)C/C1=C\C=C1\CCCC2(C)C1CCC2C(C)CCC(O)C(C)(C)O (centres unmarked) [24,25-Dihydroxyvitamin D3]
T2 Zscore (Replica 1): 0.5307 | T2 Zscore (Replica 2): 0.06636

Clc1ccc(-c2nc3sccn3c2/C=N/OCc2ccc(Cl)c(Cl)c2)cc1 [CITCO]
T2 Zscore (Replica 1): −0.6413 | T2 Zscore (Replica 2): 0.08341

O=C(O)CCC/C=C\C[C@H]1C(=O)C[C@@H](O)[C@@H]1/C=C/[C@@H](O)CCc1ccccc1 [17-Phenyl-trinor-prostaglandin E2]
T2 Zscore (Replica 1): 0.2394 | T2 Zscore (Replica 2): −0.07446

2-APB
T2 Zscore (Replica 1): 0.1417 | T2 Zscore (Replica 2): 0.0331

C=C1O[C@@](CO)(n2cnc3c(N)ncnc32)[C@H](O)[C@@H]1O [Decoyinine]
T2 Zscore (Replica 1) [1]: 0.3425 | T2 Zscore (Replica 2) [2]: 0.35

COC(=O)[C@@H]1[C@H]2C[C@H]3c4[nH]c5ccccc5c4CCN3C[C@@H]2CC[C@@H]1O [Yohimbine]
T2 Zscore (Replica 1) [1]: 0.6638 | T2 Zscore (Replica 2) [2]: −0.2405

O=C(Nc1ccccc1)c1cc([N+](=O)[O-])ccc1Cl [GW-9662]
T2 Zscore (Replica 1): −0.02422 | T2 Zscore (Replica 2): −0.2273

CC(N/C(=N\C#N)Nc1ccncc1)C(C)(C)C (centres unmarked) [Pinacidil]
T2 Zscore (Replica 1) [1]: −0.5727 | T2 Zscore (Replica 2) [2]: 0.9147

CCCCCCCCCCCCCCC[C@@H](O)[C@H](CO)NC(C)=O [C2 Dihydroceramide]
T2 Zscore (Replica 1): −0.1079 | T2 Zscore (Replica 2): −1.131

C=C[C@H]1CN2CC[C@H]1C[C@H]2[C@H](O)c1ccnc2ccc(OC)cc12.Cl.O.O [Quinine HCl • 2H2O]
T2 Zscore (Replica 1) [1]: 0.4225 | T2 Zscore (Replica 2) [2]: 0.3907

O=C1CSC(c2ccccc2Cl)c2cc(Cl)ccc2N1 (centres unmarked) [CGP-37157]
T2 Zscore (Replica 1): −0.3997 | T2 Zscore (Replica 2): 0.4128

O=C1Nc2ccc(I)cc2/C1=C/c1cc(Br)c(O)c(Br)c1 [GW-5074]
T2 Zscore (Replica 1): 0.4102 | T2 Zscore (Replica 2): 0.5957

Mastoparan
T2 Zscore (Replica 1): 0.1064 | T2 Zscore (Replica 2): −0.3153

CNC(=O)[C@H](Cc1c[nH]c2ccccc12)NC(=O)[C@@H](CC(=O)NO)CC(C)C [GM6001]
T2 Zscore (Replica 1) [1]: −0.3419 | T2 Zscore (Replica 2) [2]: 0.886

CCCCC[C@H](O)/C=C/[C@@H]1[C@H](C/C=C\CCCC(=O)O)[C@@H](O)C[C@H]1O [8-epi-Prostaglandin F2a]
T2 Zscore (Replica 1): −0.3759 | T2 Zscore (Replica 2): −0.1808

COc1ccc2c(c1)c(CC(=O)N1CCOCC1)c(C)n2C(=O)c1ccc(Cl)cc1 [BML-190]
T2 Zscore (Replica 1): 0.3255 | T2 Zscore (Replica 2): 0.1725

COc1cc2ncnc(Nc3cccc(Cl)c3)c2cc1OC [AG1478]
T2 Zscore (Replica 1): 0.1566 | T2 Zscore (Replica 2): −1.114

CCCCC/C=C\CC1OC1CCCCCCCC(=O)O (centres unmarked) [Leukotoxin A (9,10-EODE)]
T2 Zscore (Replica 1): −1.356 | T2 Zscore (Replica 2): −0.1116

CCCCCCCCCCCCCCCC(=O)C1=C(O)C(CO)OC1=O (centres unmarked) [RK-682]
T2 Zscore (Replica 1): 1.329 | T2 Zscore (Replica 2): −0.1327

CCN(CC)CC(=O)Nc1c(C)cccc1C.Cl.O [Lidocaine•HCl•H2O]
T2 Zscore (Replica 1): −0.5275 | T2 Zscore (Replica 2): 0.02272

O[C@H]1[C@H]2[C@H](O)CCCN2C[C@H]1O [swainsonine]
T2 Zscore (Replica 1): 0.3303 | T2 Zscore (Replica 2): 0.5023

N#C/C(=C/c1ccc(O)c(O)c1)C(=O)NCc1ccccc1 [AG-490]
T2 Zscore (Replica 1): 0.3683 | T2 Zscore (Replica 2): 0.6139

c1ccc2c(Cc3c[nH]c4ccccc34)c[nH]c2c1 [Diidolylmethane]
T2 Zscore (Replica 1): 0.6105 | T2 Zscore (Replica 2): 0.2083

CC(C)(C)c1cc(/C=C(\C#N)C(N)=S)cc(C(C)(C)C)c1O [AG-879]
T2 Zscore (Replica 1): 0.7316 | T2 Zscore (Replica 2): −0.9815

CC(C)Cn1c(=O)n(C)c(=O)c2[nH]cnc21 [IBMX]
T2 Zscore (Replica 1): −0.6764 | T2 Zscore (Replica 2): −0.5116

N#CC(C#N)=Cc1ccc(O)cc1 [Tyrphostin-8]
T2 Zscore (Replica 1): −0.5297 | T2 Zscore (Replica 2): 0.8841

O=C(O)CNC(=O)C(CS)Cc1ccccc1 (centres unmarked) [Thiorphan]
T2 Zscore (Replica 1) [1]: −0.5041 | T2 Zscore (Replica 2) [2]: 0.9397

CCCCC[C@H](O)/C=C/[C@H]1C=CC(=O)[C@@H]1CCCCCCC(=O)O [Prostaglandin A1]
T2 Zscore (Replica 1): −0.6811 | T2 Zscore (Replica 2): 0.7319

N#CC(=Cc1ccc2[nH]ccc2c1)C(N)=C(C#N)C#N [AG-370]
T2 Zscore (Replica 1): −3.069 | T2 Zscore (Replica 2): −1.459
